Results taken from article PMC4275256 (PLoS ONE, 2014).

System: O=C(O)O
Assay: cells, lysate or membranes
Conditions: pH 8, 50 mM NaCl, 24 °C, labelled compound, corrected for respiratory Ci

“SbtA7001 (SbtA1) (Cyanobium sp. PCC 7001)” gave a Km of 189 µM.
